# According to PubChem BioAssay (NCI):
#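 These data come from cells grown in 96-well plates and exposed to compound for 48 hours at five concentrations. Here, GI50 denotes the concentration required for 50% inhibition of growth. The concentration for full growth arrest is given as TGI.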
# Key:
# Test in all cases: DTP human tumour cell line panel, 48 h
# [1] = tested on: KM12 colon
# [2] = tested on: SK-MEL-5 melanoma
# [3] = tested on: HCT-15 colon
# [4] = tested on: MALME-3M melanoma
# [5] = tested on: NCI-H226 lung
# [6] = tested on: SW-620 colon
# [7] = tested on: HT29 colon
# [8] = tested on: UO-31 renal
# [9] = tested on: SNB-78 CNS
# [10] = tested on: SNB-19 CNS
# [11] = tested on: A498 renal
# [12] = tested on: OVCAR-4 ovarian
# [13] = tested on: OVCAR-8 ovarian
# [14] = tested on: NCI-H460 lung
# [15] = tested on: SNB-75 CNS
# [16] = tested on: IGROV1 ovarian
# [17] = tested on: DMS 273 small cell lung
# [18] = tested on: UACC-257 melanoma
# [19] = tested on: HCT-116 colon
# [20] = tested on: HCC-2998 colon
# [21] = tested on: LOX IMVI melanoma
# [22] = tested on: RXF 393 renal
# [23] = tested on: HOP-18 NSCLC
# [24] = tested on: 786-0 renal
# [25] = tested on: RPMI-8226 leukemia
# [26] = tested on: SF-539 CNS
# [27] = tested on: CCRF-CEM leukemia
# [28] = tested on: NCI-H522 lung
# [29] = tested on: U251 CNS
# [30] = tested on: K-562 leukemia
# [31] = tested on: A549 NSCLC
# [32] = tested on: KM20L2 colon
# [33] = tested on: NCI-H23 lung
# [34] = tested on: SF-295 CNS
# [35] = tested on: HOP-62 NSCLC
# [36] = tested on: SR leukemia
# [37] = tested on: SF-268 CNS
# [38] = tested on: OVCAR-5 ovarian
# [39] = tested on: MOLT-4 leukemia
# [40] = tested on: COLO 205 colon
# [41] = tested on: HL-60(TB) leukemia
# [42] = tested on: DLD-1 colon
# [43] = tested on: OVCAR-3 ovarian
# [44] = tested on: DMS 114 small cell lung
# [45] = tested on: TK-10 renal
# [46] = tested on: NCI-H322M lung
# [47] = tested on: ACHN renal
# [48] = tested on: SK-OV-3 ovarian
# [49] = tested on: XF 498 CNS
# [50] = tested on: EKVX NSCLC
# [51] = tested on: SK-MEL-2 melanoma
# [52] = tested on: M19-MEL melanoma
# [53] = tested on: SK-MEL-28 melanoma
# [54] = tested on: UACC-62 melanoma
# [55] = tested on: SN12C renal
compound,measurement,setting,value
C[N+](CCCl)(CCCl)Cc1ccc([N+](=O)[O-])cc1,GI50,[1],88.7 µM
same,TGI,[1],> 100 µM
same,GI50,[2],> 100 µM
same,TGI,[2],> 100 µM
same,GI50,[3],> 100 µM
same,TGI,[3],> 100 µM
same,GI50,[4],> 100 µM
same,TGI,[4],> 100 µM
same,GI50,[5],80.4 µM
same,TGI,[5],> 100 µM
same,GI50,[6],> 100 µM
same,TGI,[6],> 100 µM
same,GI50,[7],> 100 µM
same,TGI,[7],> 100 µM
same,GI50,[8],> 100 µM
same,TGI,[8],> 100 µM
same,GI50,[9],> 100 µM
same,TGI,[9],> 100 µM
same,GI50,[10],> 100 µM
same,TGI,[10],> 100 µM
same,GI50,[11],> 100 µM
same,TGI,[11],> 100 µM
same,GI50,[12],> 100 µM
same,TGI,[12],> 100 µM
same,GI50,[13],> 100 µM
same,TGI,[13],> 100 µM
same,GI50,[14],> 100 µM
same,TGI,[14],> 100 µM
same,GI50,[15],33.6 µM
same,TGI,[15],> 100 µM
same,GI50,[16],> 100 µM
same,TGI,[16],> 100 µM
same,GI50,[17],> 100 µM
same,TGI,[17],> 100 µM
same,GI50,[18],> 100 µM
same,TGI,[18],> 100 µM
same,GI50,[19],> 100 µM
same,TGI,[19],> 100 µM
same,GI50,[20],> 100 µM
same,TGI,[20],> 100 µM
same,GI50,[21],> 100 µM
same,TGI,[21],> 100 µM
same,GI50,[22],> 100 µM
same,TGI,[22],> 100 µM
same,GI50,[23],41.9 µM
same,TGI,[23],> 100 µM
same,GI50,[24],> 100 µM
same,TGI,[24],> 100 µM
same,GI50,[25],> 100 µM
same,TGI,[25],> 100 µM
same,GI50,[26],> 100 µM
same,TGI,[26],> 100 µM
same,GI50,[27],> 100 µM
same,TGI,[27],> 100 µM
same,GI50,[28],> 100 µM
same,TGI,[28],> 100 µM
same,GI50,[29],> 100 µM
same,TGI,[29],> 100 µM
same,GI50,[30],> 100 µM
same,TGI,[30],> 100 µM
same,GI50,[31],> 100 µM
same,TGI,[31],> 100 µM
same,GI50,[32],> 100 µM
same,TGI,[32],> 100 µM
same,GI50,[33],> 100 µM
same,TGI,[33],> 100 µM
same,GI50,[34],> 100 µM
same,TGI,[34],> 100 µM
same,GI50,[35],> 100 µM
same,TGI,[35],> 100 µM
same,GI50,[36],> 100 µM
same,TGI,[36],> 100 µM
same,GI50,[37],> 100 µM
same,TGI,[37],> 100 µM
same,GI50,[38],> 100 µM
same,TGI,[38],> 100 µM
same,GI50,[39],> 100 µM
same,TGI,[39],> 100 µM
same,GI50,[40],> 100 µM
same,TGI,[40],> 100 µM
same,GI50,[41],> 100 µM
same,TGI,[41],> 100 µM
same,GI50,[42],> 100 µM
same,TGI,[42],> 100 µM
same,GI50,[43],> 100 µM
same,TGI,[43],> 100 µM
same,GI50,[44],> 100 µM
same,TGI,[44],> 100 µM
same,GI50,[45],> 100 µM
same,TGI,[45],> 100 µM
same,GI50,[46],> 100 µM
same,TGI,[46],> 100 µM
same,GI50,[47],> 100 µM
same,TGI,[47],> 100 µM
same,GI50,[48],> 100 µM
same,TGI,[48],> 100 µM
same,GI50,[49],> 100 µM
same,TGI,[49],> 100 µM
same,GI50,[50],> 100 µM
same,TGI,[50],> 100 µM
same,GI50,[51],> 100 µM
same,TGI,[51],> 100 µM
same,GI50,[52],> 100 µM
same,TGI,[52],> 100 µM
same,GI50,[53],> 100 µM
same,TGI,[53],> 100 µM
same,GI50,[54],> 100 µM
same,TGI,[54],> 100 µM
same,GI50,[55],> 100 µM
same,TGI,[55],> 100 µM
